In assay [1] the target is Muscarinic acetylcholine receptor M1 (Rattus norvegicus) (UniProt P08482). The assay can be described thus: qHTS Assay for Antagonists of Acetylcholine Muscarinic M1 Receptor: Kinetic Measurement of Intracellular Calcium Response (AID 943). Also: potency is read from the fitted curve at half-maximal effect; nearly all actives have a fitted effect of over 75% in size. To be noted: M1-expressing cells, kinetic intracellular calcium fluorescence. The method in brief: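 CHO cells stably expressing rat M1 were loaded with no-wash Fluo-4 dye for 1 h at 37C, pre-incubated 10 min with compound, then challenged with EC80 carbachol (100 nM final); kinetic calcium read 4 min, peak/basal ratio.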
A general note: qHTS replaces the single test concentration by a dilution series.

By UniProt entry, the sequences of proteins in these tests, tags left out. Where a name states a change or a piece, a line headed by the entry shows the natural chain unless it says otherwise.
UniProt P08482: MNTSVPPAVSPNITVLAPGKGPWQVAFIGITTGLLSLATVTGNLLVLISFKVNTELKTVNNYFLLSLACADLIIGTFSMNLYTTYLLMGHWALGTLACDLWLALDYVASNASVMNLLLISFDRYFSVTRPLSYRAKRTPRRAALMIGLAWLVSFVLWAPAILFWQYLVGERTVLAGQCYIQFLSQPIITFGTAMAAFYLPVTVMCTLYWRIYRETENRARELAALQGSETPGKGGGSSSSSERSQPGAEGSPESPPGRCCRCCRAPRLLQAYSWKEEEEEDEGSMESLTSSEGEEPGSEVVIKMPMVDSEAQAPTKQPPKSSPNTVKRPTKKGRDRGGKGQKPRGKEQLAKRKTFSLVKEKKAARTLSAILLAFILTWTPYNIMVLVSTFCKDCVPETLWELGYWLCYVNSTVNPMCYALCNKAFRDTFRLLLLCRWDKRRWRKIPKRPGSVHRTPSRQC
UniProt P21728, whole entry, looked up: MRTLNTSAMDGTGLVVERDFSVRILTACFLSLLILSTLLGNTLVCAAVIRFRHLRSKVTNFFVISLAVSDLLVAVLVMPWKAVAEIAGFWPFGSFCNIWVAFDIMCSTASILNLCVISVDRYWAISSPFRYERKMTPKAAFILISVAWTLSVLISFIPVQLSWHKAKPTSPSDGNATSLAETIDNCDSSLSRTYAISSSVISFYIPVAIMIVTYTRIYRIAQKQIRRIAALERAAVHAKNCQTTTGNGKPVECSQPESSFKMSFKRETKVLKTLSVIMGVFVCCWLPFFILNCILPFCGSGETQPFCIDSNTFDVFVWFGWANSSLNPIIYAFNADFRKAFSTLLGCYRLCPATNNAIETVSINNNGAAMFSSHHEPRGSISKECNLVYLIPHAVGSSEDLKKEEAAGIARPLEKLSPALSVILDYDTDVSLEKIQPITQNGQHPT
UniProt P11712, whole entry, looked up: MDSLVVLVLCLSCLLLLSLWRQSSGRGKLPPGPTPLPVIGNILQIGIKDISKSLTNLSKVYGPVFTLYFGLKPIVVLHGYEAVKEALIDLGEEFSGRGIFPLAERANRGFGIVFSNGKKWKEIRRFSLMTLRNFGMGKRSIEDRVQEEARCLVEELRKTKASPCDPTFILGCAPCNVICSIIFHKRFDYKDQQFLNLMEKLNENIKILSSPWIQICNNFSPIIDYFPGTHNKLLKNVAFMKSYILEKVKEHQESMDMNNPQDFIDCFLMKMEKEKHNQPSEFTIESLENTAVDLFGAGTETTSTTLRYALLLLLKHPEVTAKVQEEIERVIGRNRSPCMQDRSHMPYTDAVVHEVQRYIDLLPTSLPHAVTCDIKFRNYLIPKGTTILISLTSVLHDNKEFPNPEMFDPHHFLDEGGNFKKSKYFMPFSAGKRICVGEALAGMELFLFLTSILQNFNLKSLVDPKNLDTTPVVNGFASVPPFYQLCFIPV
UniProt P10635, whole entry, looked up: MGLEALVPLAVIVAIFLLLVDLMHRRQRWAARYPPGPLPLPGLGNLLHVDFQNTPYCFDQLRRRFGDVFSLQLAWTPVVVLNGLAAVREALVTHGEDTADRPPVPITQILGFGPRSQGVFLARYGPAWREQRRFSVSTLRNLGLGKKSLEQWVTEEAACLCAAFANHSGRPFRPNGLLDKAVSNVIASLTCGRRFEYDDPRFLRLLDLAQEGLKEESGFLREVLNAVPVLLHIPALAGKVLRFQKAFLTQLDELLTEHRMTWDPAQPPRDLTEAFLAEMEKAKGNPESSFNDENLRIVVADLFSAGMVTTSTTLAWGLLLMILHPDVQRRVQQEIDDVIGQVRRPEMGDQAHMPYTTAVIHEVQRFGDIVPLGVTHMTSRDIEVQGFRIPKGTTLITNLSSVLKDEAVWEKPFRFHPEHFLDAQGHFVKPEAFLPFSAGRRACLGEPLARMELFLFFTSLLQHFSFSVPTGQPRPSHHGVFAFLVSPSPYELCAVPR
UniProt P33261, whole entry, looked up: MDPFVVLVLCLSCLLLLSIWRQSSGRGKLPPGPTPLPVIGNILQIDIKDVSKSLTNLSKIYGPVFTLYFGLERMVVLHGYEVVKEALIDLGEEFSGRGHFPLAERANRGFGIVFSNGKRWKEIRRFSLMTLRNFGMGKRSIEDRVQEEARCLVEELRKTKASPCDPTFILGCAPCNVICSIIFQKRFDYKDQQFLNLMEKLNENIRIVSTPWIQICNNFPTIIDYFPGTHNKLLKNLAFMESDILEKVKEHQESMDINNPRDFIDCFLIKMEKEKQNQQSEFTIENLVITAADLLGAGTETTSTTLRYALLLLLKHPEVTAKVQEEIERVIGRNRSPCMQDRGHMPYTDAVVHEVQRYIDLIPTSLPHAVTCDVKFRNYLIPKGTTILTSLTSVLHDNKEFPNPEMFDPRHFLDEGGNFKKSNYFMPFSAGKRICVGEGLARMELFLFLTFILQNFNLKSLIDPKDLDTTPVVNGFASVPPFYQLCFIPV
UniProt P08659, whole entry, looked up: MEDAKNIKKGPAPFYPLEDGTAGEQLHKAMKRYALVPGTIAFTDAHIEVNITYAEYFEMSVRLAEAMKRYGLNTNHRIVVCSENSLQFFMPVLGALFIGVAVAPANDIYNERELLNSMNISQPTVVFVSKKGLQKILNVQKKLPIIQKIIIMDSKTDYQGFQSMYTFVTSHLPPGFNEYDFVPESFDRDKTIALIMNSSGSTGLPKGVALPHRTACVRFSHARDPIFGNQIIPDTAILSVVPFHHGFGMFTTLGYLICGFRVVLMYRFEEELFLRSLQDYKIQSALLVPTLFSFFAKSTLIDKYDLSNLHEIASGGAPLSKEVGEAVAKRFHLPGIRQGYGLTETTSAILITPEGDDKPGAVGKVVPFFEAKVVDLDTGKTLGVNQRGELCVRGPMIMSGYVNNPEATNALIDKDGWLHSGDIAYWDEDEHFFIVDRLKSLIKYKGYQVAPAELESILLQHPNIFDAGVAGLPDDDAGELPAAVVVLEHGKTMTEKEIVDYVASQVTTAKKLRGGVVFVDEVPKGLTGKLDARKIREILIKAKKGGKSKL
UniProt Q12809: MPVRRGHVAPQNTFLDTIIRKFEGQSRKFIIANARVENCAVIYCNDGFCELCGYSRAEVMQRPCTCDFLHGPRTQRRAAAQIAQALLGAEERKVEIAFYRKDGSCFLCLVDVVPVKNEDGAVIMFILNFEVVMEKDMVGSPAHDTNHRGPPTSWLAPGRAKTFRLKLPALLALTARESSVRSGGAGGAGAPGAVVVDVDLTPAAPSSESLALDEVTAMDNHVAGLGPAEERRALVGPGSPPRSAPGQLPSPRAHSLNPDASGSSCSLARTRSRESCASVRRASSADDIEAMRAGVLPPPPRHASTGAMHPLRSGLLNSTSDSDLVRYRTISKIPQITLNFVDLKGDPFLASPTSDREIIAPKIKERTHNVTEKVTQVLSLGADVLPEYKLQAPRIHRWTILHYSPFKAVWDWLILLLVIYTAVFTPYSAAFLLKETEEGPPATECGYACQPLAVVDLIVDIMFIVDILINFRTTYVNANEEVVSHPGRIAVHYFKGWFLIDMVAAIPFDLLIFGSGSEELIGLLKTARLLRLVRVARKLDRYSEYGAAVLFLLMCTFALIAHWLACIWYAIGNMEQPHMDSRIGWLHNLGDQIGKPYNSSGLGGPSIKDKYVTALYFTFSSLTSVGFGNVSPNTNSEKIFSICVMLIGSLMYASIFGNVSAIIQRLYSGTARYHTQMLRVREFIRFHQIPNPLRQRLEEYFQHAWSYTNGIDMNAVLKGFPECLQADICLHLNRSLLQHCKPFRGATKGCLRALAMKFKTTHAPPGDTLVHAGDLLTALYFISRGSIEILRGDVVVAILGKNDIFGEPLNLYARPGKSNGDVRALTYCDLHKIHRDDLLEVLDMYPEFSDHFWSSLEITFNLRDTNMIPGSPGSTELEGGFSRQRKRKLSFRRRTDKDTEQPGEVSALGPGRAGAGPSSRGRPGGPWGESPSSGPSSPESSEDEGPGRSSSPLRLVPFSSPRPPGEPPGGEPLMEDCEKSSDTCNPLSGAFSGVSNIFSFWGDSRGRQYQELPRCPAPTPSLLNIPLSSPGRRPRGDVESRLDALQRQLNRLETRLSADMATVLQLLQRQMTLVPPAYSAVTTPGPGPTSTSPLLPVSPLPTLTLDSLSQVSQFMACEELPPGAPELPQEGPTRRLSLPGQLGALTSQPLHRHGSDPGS
UniProt P19793: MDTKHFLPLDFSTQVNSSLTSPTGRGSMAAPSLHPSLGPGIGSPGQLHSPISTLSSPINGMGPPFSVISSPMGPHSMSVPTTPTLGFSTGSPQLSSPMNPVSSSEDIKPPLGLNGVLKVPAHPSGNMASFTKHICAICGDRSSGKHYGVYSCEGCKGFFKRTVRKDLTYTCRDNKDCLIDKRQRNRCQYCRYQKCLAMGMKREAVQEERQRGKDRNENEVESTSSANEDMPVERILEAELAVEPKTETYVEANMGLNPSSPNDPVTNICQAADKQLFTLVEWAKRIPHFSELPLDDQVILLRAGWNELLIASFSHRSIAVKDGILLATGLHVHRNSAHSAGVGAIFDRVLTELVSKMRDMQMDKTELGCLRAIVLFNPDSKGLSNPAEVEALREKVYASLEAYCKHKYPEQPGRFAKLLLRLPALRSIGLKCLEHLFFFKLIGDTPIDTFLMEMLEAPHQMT
UniProt Q03181: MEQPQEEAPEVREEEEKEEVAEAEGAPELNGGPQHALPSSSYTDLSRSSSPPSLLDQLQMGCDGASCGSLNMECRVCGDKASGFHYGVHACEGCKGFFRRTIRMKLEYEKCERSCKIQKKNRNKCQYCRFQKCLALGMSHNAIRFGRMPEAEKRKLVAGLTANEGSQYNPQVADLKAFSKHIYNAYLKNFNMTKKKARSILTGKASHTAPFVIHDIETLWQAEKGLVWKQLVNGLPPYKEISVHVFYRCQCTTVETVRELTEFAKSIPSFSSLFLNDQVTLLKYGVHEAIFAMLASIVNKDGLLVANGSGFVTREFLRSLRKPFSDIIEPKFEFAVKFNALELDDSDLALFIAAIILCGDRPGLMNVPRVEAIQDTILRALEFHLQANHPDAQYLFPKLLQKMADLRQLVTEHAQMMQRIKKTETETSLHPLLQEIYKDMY
UniProt O89049, whole entry, looked up: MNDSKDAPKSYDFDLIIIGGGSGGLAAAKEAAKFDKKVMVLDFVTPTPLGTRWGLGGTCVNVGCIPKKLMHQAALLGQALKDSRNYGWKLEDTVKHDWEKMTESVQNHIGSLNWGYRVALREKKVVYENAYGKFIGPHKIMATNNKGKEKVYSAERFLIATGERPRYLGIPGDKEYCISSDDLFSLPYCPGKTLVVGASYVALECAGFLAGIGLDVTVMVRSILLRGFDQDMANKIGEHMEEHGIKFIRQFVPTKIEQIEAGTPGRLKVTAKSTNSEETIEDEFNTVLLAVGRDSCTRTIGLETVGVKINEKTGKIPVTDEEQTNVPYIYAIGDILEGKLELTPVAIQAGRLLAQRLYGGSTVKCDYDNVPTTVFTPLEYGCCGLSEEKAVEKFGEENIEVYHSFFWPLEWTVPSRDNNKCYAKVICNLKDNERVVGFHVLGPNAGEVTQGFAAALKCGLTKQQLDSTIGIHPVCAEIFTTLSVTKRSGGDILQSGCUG
UniProt O94782: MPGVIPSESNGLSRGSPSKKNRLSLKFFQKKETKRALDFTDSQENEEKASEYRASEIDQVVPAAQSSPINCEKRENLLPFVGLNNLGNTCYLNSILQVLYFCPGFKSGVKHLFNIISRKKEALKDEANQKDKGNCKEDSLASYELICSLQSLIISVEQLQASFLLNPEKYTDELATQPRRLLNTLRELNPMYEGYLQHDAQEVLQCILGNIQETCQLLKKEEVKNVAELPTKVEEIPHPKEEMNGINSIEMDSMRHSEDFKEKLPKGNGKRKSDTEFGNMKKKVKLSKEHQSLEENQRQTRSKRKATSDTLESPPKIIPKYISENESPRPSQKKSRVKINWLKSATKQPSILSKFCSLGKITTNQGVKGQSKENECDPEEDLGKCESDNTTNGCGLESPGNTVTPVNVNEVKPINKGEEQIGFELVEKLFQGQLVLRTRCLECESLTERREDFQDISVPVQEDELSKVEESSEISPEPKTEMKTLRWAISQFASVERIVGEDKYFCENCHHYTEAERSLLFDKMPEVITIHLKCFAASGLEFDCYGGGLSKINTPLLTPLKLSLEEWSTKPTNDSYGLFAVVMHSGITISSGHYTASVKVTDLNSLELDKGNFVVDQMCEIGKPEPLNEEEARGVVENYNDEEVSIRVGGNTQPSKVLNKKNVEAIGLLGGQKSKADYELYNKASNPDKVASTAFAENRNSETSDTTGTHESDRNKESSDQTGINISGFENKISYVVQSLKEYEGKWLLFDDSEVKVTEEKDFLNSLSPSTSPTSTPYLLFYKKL

The target is the same in assay [2]. The assay can be described thus: qHTS Assay for Antagonists of Acetylcholine Muscarinic M1 Receptor: Measurement of IP-One Response (AID 944). Also: potency is read from the fitted curve at half-maximal effect; nearly all actives have a fitted effect of over 75% in size. To be noted: CHO-M1 cells, IP-One HTRF, antagonist mode. The method in brief: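 CHO cells expressing rat M1 receptor, recovered overnight, were pre-incubated 10 min with compound, then stimulated 30 min with carbachol at EC80 (200 nM) in LiCl-containing buffer, pH 7.4. IP1 accumulation was read by HTRF (620/665 nm).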

Assay [3] deals with D(1A) dopamine receptor (Homo sapiens) (UniProt P21728). The assay can be described thus: HTS Assay for Allosteric Agonists of the Human D1 Dopamine Receptor: Primary Screen for Potentiators (AID 488982). Also: 0% is about no effect. To be noted: HEK293 T-REx D1 inducible cells, calcium flux, kinetic fluorescence; at 8.37 µM (top of the series). The method in brief: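 Calcium flux in an inducible, force-coupled HEK293 Trex D1 line (overnight at 30 C): agonist mode is the 180 s kinetic read after compound; potentiator mode is the following 180 s read after dopamine at EC20.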
(In general: Calcium assays in cells follow changes in intracellular calcium, usually with a dye or a luminescent sensor.)

Assay [4] shares this target. As to the kind of experiment: HTS Assay for Allosteric Agonists of the Human D1 Dopamine Receptor: Primary Screen for Antagonists (AID 488983).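 Also: calcium flux response to an EC80 dopamine challenge measured with no-wash dye; potency is read from the fitted curve at half-maximal effect; nearly all actives have a fitted effect of over 65% in size.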 To be noted: D1 receptor cell assay, antagonist mode, qHTS titration. The gist of the method:
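Tetracycline-induced HEK293 T-REx cells expressing force-coupled D1 were plated overnight at 30 C, dye-loaded for calcium, and read kinetically. Compounds were pinned in, then an EC80 dopamine challenge followed after 180 s to reveal antagonism.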

Assay [5] has as its target Ubiquitin carboxyl-terminal hydrolase 2 (Homo sapiens) (UniProt O75604). The assay can be described thus: qHTS for Inhibitors of Ubiquitin-specific Protease USP2a Using CHOP2 as the Reporter: K484 Substrate (AID 652173).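 Also: cleavage of internally quenched K48 di-ubiquitin substrate measured as rising fluorescence over time; potency is read from the fitted curve at half-maximal effect; nearly all actives have a fitted effect of over 70% in size.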 To be noted: USP2 cleavage of DiUb K48 IQF substrate, fluorescence. The gist of the method: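 USP2 (dispensed at 5 nM) was pinned with compounds, then DiUb K48 internally quenched fluorescent substrate (dispensed at 100 nM) was added. The buffer was 20 mM Tris pH 8, 2 mM beta-mercaptoethanol and 0.05% CHAPS. Cleavage was read kinetically as rising fluorescence, Ex 525/Em 598.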

Assay [6] has as its target Cytochrome P450 1A2 (Homo sapiens) (UniProt P05177). The assay can be described thus: p450-cyp1a2 (AID 410; calls by dose curve;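 also: -100% = full effect of reference inhibitor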). To be noted: recombinant CYP1A2, luciferin-ME demethylation, luminescence; at 25.6 µM (top of the series). The method in brief:
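Human CYP1A2 (20nM) demethylated Luciferin-ME at its Km (100uM) in 100mM KPO4. After 10 min compound preincubation, NADPH regeneration ran the reaction 60 min at room temperature. Luciferin was read by luminescence, normalized to 57 uM furafylline.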

Assay [7] concerns the target Cytochrome P450 2C9 (Homo sapiens) (UniProt P11712). As to the kind of experiment: qHTS Assay for Inhibitors and Substrates of Cytochrome P450 2C9 (AID 883). Also: % is scaled to controls: 0 for no effect and ±100 for the full control effect; nearly all actives have a fitted effect of over 60% in size. To be noted: recombinant CYP2C9, luciferin-H luminescence, 60 min; at 57.1 µM (top of the series) unless noted.
Assay [8] deals with Cytochrome P450 2D6 (Homo sapiens) (UniProt P10635). The assay can be described thus: qHTS Assay for Inhibitors and Substrates of Cytochrome P450 2D6 (AID 891).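 Also: luciferin methyl ether substrate demethylated by CYP2D6 with NADPH regeneration; % is scaled to controls: 0 for no effect and ±100 for the full control effect; nearly all actives have a fitted effect of over 60% in size.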
Assay [9] addresses Cytochrome P450 2C19 (Homo sapiens) (UniProt P33261). The assay can be described thus: qHTS Assay for Inhibitors and Substrates of Cytochrome P450 2C19 (AID 899). Also: % is scaled to controls: 0 for no effect and ±100 for the full control effect; nearly all actives have a fitted effect of over 60% in size.
The target in assay [10] is Luciferin 4-monooxygenase (Photinus pyralis) (UniProt P08659). As to the kind of experiment: Biochemical firefly luciferase enzyme assay for NPC (AID 624030). Also: potency is read from the fitted curve at half-maximal effect; nearly all actives have a fitted effect of over 70% in size. To be noted: purified P. pyralis luciferase, luminescence, 5 min. The method in brief: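 Direct inhibition of firefly luciferase enzyme (10 nM final, 50 mM Tris Acetate) assessed by luminescence within 5 minutes. Percent activity scaled between DMSO and PTC124 positive control, with concentration-effect curves classified by fit quality and response.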

Assay [11] is described as follows: Validation screen for small molecules that induce genotoxicity in human embryonic kidney (HEK293T) cells expressing luciferase-tagged ELG1 (AID 493106). Also: 0% is about no effect. To be noted: luminescence; at 46.1 µM (top of the series). The method in brief: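 HEK293T cells expressing luciferase-tagged ELG1 were exposed to compound or DMSO vehicle for 16 hr at 37 °C, 5% CO2. Genotoxic stress raises ELG1 levels, so increased luciferase signal after ONE-Glo addition and 30 min at room temperature marks hits.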

Assay [12] concerns the target ATPase family AAA domain-containing protein 5 (Homo sapiens) (UniProt Q96QE3). As to the kind of experiment: Validation screen for small molecules that inhibit ELG1-dependent DNA repair in human embryonic kidney (HEK293T) cells expressing luciferase-tagged ELG1 (AID 493107). Also: potency is read from the fitted curve at half-maximal effect; nearly all actives have a fitted effect of over 70% in size. To be noted: HEK293T ELG1-luciferase level, luminescence; 5-fluorouridine co-treatment, 16 h. The gist of the method:
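HEK293T cells expressing luciferase-tagged ELG1 were co-treated with 5-fluorouridine and compound or DMSO for 16 hr at 37 °C, 5% CO2. Luciferase activity was then read with ONE-Glo after 30 min at room temperature; suppressed signal indicates blocked ELG1 function.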

The target is the same in assay [13]. The assay can be described thus: HTS assay for small molecules that inhibit ELG1-dependent DNA repair in human embryonic kidney (HEK293T) cells expressing luciferase-tagged ELG1: Hit Confirmation (AID 624248). Also: potency is read from the fitted curve at half-maximal effect; nearly all actives have a fitted effect of over 55% in size. To be noted: HEK293T ELG1-luciferase levels, luminescence; cells co-treated with 5-fluorouridine. The method in brief:
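Suppression of ELG1-luciferase signal was read by ONE-Glo luminescence in HEK293T reporter cells after 16 h at 37 C co-treatment with compound and 5-fluorouridine as DNA-damaging agent.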

Assay [14] has the same target. As to the kind of experiment: qHTS screen for small molecules that inhibit ELG1-dependent DNA repair in human embryonic kidney (HEK293T) cells expressing luciferase-tagged ELG1: Hit Confirmation using MMS Stimulated ELG1 (AID 624249). Also: potency is read from the fitted curve at half-maximal effect; nearly all actives have a fitted effect of over 60% in size. To be noted: HEK293T luciferase-tagged ELG1 level. The method in brief: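 ELG1-luciferase HEK293T cells were plated at 2,000 cells/well, and about 5 h later test compounds were pin-transferred alongside MMS (final 10 µM). After 16 h, luciferase activity was read with Amplight reagent; hits suppress the signal.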

Assay [15] can be described thus: qHTS screen for small molecules that inhibit ELG1-dependent DNA repair: Hit Confirmation with 5FU Viability (AID 624250). Also: % is scaled to controls: 0 for no effect and ±100 for the full control effect. To be noted: cell viability with 5-FU; at 46.1 µM (top of the series). The gist of the method:
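Using CellTiter-Glo, viability of ELG1-luciferase HEK293T cells was assessed 16 h after adding compounds with 5-fluorouridine at a final 10 µM.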

The nature of assay [16]: qHTS screen for small molecules that inhibit ELG1-dependent DNA repair: Hit Confirmation with MMS Viability (AID 624251). To be noted: Cell viability with MMS. The method in brief: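 Under 10 µM MMS, compounds were tested on ELG1-luc HEK293T cells seeded at 2,000 cells/well; survival was determined by CellTiter-Glo luminescence 16 h post-addition.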
Assay [17] has as its target Voltage-gated inwardly rectifying potassium channel KCNH2 (Homo sapiens) (UniProt Q12809). As to the kind of experiment: qHTS Assay for Small Molecule Inhibitors of the Human hERG Channel Activity (AID 588834).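 Also: potency is read from the fitted curve at half-maximal effect; lower thallium flux fluorescence means stronger hERG block; nearly all actives have a fitted effect of over 50% in size.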 To be noted: U2OS BacMam hERG, FluxOR thallium flux fluorescence.
A short description of assay [18]: qHTS assay for small molecule antagonists of retinoid X receptor alpha signaling (AID 588546; active = well fitted inhibition curve with a large enough effect in the signal ratio, with a control signal flat, not every such curve was filed as active; the % refers to the signal ratio; also: potency is read from the fitted curve at half-maximal effect;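 as to max response: cells stimulated with 9-cis-retinoic acid as agonist; % is scaled to controls: 0 for no effect and ±100 for the full control effect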). To be noted: HEK293T RXRa-UAS-bla, beta-lactamase ratio, antagonist mode; measured here: W530 green channel, cytotoxicity proxy. The gist of the method:
(§1)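 Beta-lactamase reporter inhibition, read as CCF4 fluorescence ratio (ex 405, em 460/530 nm) after 2 h at RT. HEK293T UAS-bla cells, 2500/well, were stimulated with 9-cis-RA at 500 or 100 nM final alongside test compound for 18 h at 37 C.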

The target in assay [19] is Retinoic acid receptor RXR-alpha (Homo sapiens) (UniProt P19793). Described as above. To be noted: HEK293T RXRa-UAS-bla, beta-lactamase ratio, antagonist mode. The method in brief:
as §1

In assay [20] the target is Vitamin D3 receptor (Homo sapiens) (UniProt P11473). As to the kind of experiment: qHTS assay for small molecule agonists of vitamin D receptor signaling (AID 588543; calls by dose curve;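 also: 0% = DMSO basal and 100% = reference agonist control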). To be noted: HEK293T VDR-UAS-bla, beta-lactamase ratio, 16 h; at 76.8 µM (top of the series). The gist of the method:
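GeneBLAzer VDR-UAS-bla HEK293T cells in 2% charcoal-stripped FBS medium were dosed with compound titrations for 16 h at 37 °C; CCF4 β-lactamase readout (405 nm ex, 460/530 nm em). EC50 and efficacy from Hill fits, normalized to 50 nM calcitriol (100%) and DMSO (0%).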

Assay [21] addresses Peroxisome proliferator-activated receptor delta (Homo sapiens) (UniProt Q03181). As to the kind of experiment: qHTS assay for small molecule agonists of peroxisome proliferator-activated receptor delta signaling (AID 588534; calls by dose curve;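 also: 0% = DMSO basal wells and 100% = positive control agonist at 10 µM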). To be noted: HEK293T PPARdelta-UAS-bla, beta-lactamase ratio, 18 h; at 76.7 µM (top of the series).
Assay [22] addresses Thioredoxin reductase 1, cytoplasmic (Rattus norvegicus) (UniProt O89049). As to the kind of experiment: qHTS Assay for Inhibitors of Mammalian Selenoprotein Thioredoxin Reductase 1 (TrxR1) (AID 488773).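 Also: drop in NADPH fluorescence over an 8 min run after selenite addition; % is scaled to controls: 0 for no effect and ±100 for the full control effect; nearly all actives have a fitted effect of over 40% in size.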 To be noted: purified TrxR1 enzyme activity; at 57.1 µM (top of the series). The gist of the method:
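Steps: enzyme (90 nM) plus NADPH (400 uM final), 5 min at ~22 deg C; compound added, 15 min; selenite (400 uM final) added; fluorescence followed for 8 min. Concentration-response curves derived from the normalized delta values.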

Assay [23] has as its target Ubiquitin carboxyl-terminal hydrolase 1 (Homo sapiens) (UniProt O94782). As to the kind of experiment: Inhibitors of USP1/UAF1: Pilot qHTS (AID 504865).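 Also: rhodamine fluorescence freed from ubiquitin-rhodamine substrate followed over time; top concentration of the series differs between compounds; % is scaled to controls: 0 for no effect and ±100 for the full control effect; nearly all actives have a fitted effect of over 35% in size.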 To be noted: purified USP1/UAF1, Ub-rhodamine cleavage fluorescence; at 114 µM (top of the series). The gist of the method:
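USP1/UAF1 complex (1nM) preincubated with compound 15 min at room temperature, then Ub-Rho substrate (150nM final) added. Fluorescence read kinetically at 480/540 nm, 6 reads every 60 seconds. Buffer: 50mM HEPES pH 7.8, 0.5mM EDTA, 0.1 mg/ml BSA, 1mM TCEP, 0.01% Tween-20.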

Where “and” joins values, the source holds several entries; their conditions need not be identical. Identical values can stand only once. For part of these data: What follows is the remainder of the data, with few or none of the hits. Results filed as inconclusive are left out. Only a part is listed here, and it is no random draw. Some compounds were tested as several samples or in several runs, with calls that do not always agree. Calls of active or inactive are those of the source. Unless noted, calls follow the shape of the dose curve; as a rule, active = well fitted curve in the direction sought with a large enough effect; inconclusive = small, poorly fitted or top-dose-only effect, or another doubt; inactive = no such curve, though single readings can be large; an effect the other way counts as inactive or inconclusive.

Regarding `COc1ccccc1CNCCCCCCNCCCCCCCCNCCCCCCNCc1ccccc1OC`, the figures for the Potency in assay [1] and in assay [2] were active: 0.891 µM and active: 3.55 µM, respectively. Take `CN1CCN(CCCN2c3ccccc3Sc3ccc(C(F)(F)F)cc32)CC1`: the activity, positive = potentiation in assay [3] is inactive: -80.8%. Besides, the Potency in assay [4] was active: 0.891 µM. As for `Cc1ccc(S(=O)(=O)Nc2cc(C(F)(F)F)ccc2C(=O)Nc2nc(-c3ccccc3)cs2)cc1`, the Potency in assay [5] is active: 1.09 µM. With `O=C(O)CCCC[C@H]1SC[C@H]2NC(=O)N[C@@H]21`, the activity change, negative = inhibition in assay [6] is inactive: 15.5%; in assay [7] it was inactive: 0.821% [at 25.6 µM]. The Potency result in assay [8] and in assay [9] was “inactive” each time.

For `O=C(c1ccccc1)c1ccc2n1CCC2C(=O)O` (centres undefined), the Potency in [10] is active: 11.4 µM.

On to `Nc1ncn([C@@H]2O[C@H](CO)[C@@H](O)[C@H]2O)c(=O)n1`, for which the activity change, positive = ELG1 induction in [11] is inactive: -20.5%. In addition, the Potency is active: 8.2 µM in assay [12], active: 5.6 µM in assay [13], active: 1.25 µM in [14] and active: 15.8 µM in assay [16]. Moreover, the activity change, negative = viability loss in assay [15] is inactive: -5.21%. Regarding `CNCCCN1c2ccccc2CCc2ccccc21`, the Potency in assay [17] was active: 20 µM.

Take `CC(C)(Sc1ccc(CCN(CCCCC2CCCCC2)C(=O)NC2CCCCC2)cc1)C(=O)O`: the max response in assay [18] was -9.29%. Further, in [19], the Potency is active: 35.5 µM. For the compound `CCCCC1C(=O)N(c2ccccc2)N(c2ccccc2)C1=O`, in assay [20], the activation was inactive: -0.369%. As to `CC1=C(/C=C/C(C)=C/C=C/C(C)=C/C(=O)O)C(C)(C)CCC1`, in [21], the activation is inactive: 0.171%. With `COc1ccc([C@@H]2Sc3ccccc3N(CCN(C)C)C(=O)[C@@H]2OC(C)=O)cc1`, the activity change, negative = inhibition in [22] is inactive: 20.2%. In the case of `Nc1ccc(S(=O)(=O)Nc2ccnn2-c2ccccc2)cc1`, the Potency result in assay [8] is “inactive”.

Regarding `NCCCC(O)(P(=O)(O)O)P(=O)(O)O`, in assay [23], the activity change, negative = inhibition is inactive: -2.11% and inactive: -3.04%.
